{"sequences": {"note": "Chains of the proteins cited; added tags and fusions are not shown.", "UniProt O35678, whole entry": "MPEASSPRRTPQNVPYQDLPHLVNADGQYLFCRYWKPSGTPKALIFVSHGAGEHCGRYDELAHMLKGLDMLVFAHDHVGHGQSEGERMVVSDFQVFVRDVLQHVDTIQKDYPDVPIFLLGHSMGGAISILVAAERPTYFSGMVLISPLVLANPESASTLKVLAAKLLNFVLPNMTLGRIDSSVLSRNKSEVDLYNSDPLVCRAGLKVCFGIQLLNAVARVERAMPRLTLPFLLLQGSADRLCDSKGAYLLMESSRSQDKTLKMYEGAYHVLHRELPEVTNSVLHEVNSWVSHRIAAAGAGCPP"}, "source": "ChEMBL document CHEMBL1156908", "about": "“Characterization of tunable piperidine and piperazine carbamates as inhibitors of endocannabinoid hydrolases” (J Med Chem, 2010)", "target": "Monoglyceride lipase (Mus musculus, UniProt O35678)", "assay": "Inhibition of MAGL in mouse brain membrane", "format": "cell membranes", "procedure,_shortened": "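Mouse brain membrane fraction (Dounce homogenized in PBS pH 7.5, 1,400 × g debris spin, 64,000 × g 45 min pellet, resuspended) at 1 mg/ml in PBS. Inhibitor preincubated 30 min at 37°C, then FP-rhodamine 1 μM final for 30 min at 25°C. SDS-PAGE with in-gel fluorescence scanning. IC50 from fitted integrated band intensities, mean of at least triplicates.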", "data": [{"smiles": "O=C(Oc1ccc([N+](=O)[O-])cc1)N1CCN(Cc2cccc(Oc3ccccc3)c2)CC1", "values": [{"measurement": "IC50", "result": 19, "unit": "nM"}]}]}
